Source: patent US20100034880A1, “PHARMACEUTICAL COMPOSITIONS BASED ON A MICROEMULSION” (NANODERMA LTD, priority 2007, published 2010)

Key:
[1] = with absorption enhancers (e.g., cyclopentadecalactone or CPE-215); cited from earlier work
[2] = Pharmacokinetics of insulin after IV, SC and IN administration to diabetic rabbits
[3] = Healthy Rabbit #1, IN 1 IU/kg (microemulsion)
[4] = Healthy Rabbit #2, IN 1 IU/kg (microemulsion)
[5] = Diabetic Rabbit #1, IN 1 IU/kg (ME20)
[6] = Diabetic Rabbit #1, IV 0.5 IU/kg
[7] = Diabetic Rabbit #1, SC 0.5 IU/kg
[8] = Diabetic Rabbit #2, IN 1 IU/kg (ME20)
[9] = Diabetic Rabbit #2, IV 0.5 IU/kg
[10] = Diabetic Rabbit #2, SC 0.5 IU/kg
[11] = Diabetic Rabbit #3, IN 1 IU/kg (ME20)
[12] = Diabetic Rabbit #3, IV 0.5 IU/kg
[13] = Diabetic Rabbit #3, SC 0.5 IU/kg
[14] = Diabetic Rabbit #4, IN 1 IU/kg (ME20)
[15] = Diabetic Rabbit #4, IV 0.5 IU/kg
[16] = Diabetic Rabbit #4, SC 0.5 IU/kg

## Human insulin
[1]
  systemic absorption via the nasal route: 10-15%

## insulin
[3]
  ?z (lambdaz): 0.0128 min − 1
  AUC0-∞: 10391.5 mIU · min · L^−1
  AUC0-∞/dose: 10391.5 mIU · min · L^−1 · D^−1
  Cmax: 160.4 mIU/L
  Elimination t1/2: 53.9 min
  tmax: 15 min
Healthy Rabbit #1, SC 1 IU/kg
  ?z (lambdaz): 0.0165 min − 1
  AUC0-∞: 28952.3 mIU · min · L^−1
  AUC0-∞/dose: 28952.3 mIU · min · L^−1 · D^−1
  Cmax: 329.5 mIU/L
  Elimination t1/2: 42.0 min
  tmax: 15 min
[4]
  Cmax: 141.6 mIU/L
  tmax: 15 min
  AUC0-∞ (here AUC0-last = AUC0-30): 3206.9^b mIU · min · L^−1
  AUC0-∞/dose (here AUC0-last = AUC0-30): 3206.9^b mIU · min · L^−1 · D^−1
Healthy Rabbit #2, SC 1 IU/kg
  Cmax: 309.2 mIU/L
  tmax: 15 min
  AUC0-∞ (here AUC0-last = AUC0-30): 6426.8^b mIU · min · L^−1
  AUC0-∞/dose (here AUC0-last = AUC0-30): 6426.8^b mIU · min · L^−1 · D^−1
[2]; [5]
  ?z (lambdaz): 0.0189 min⁻¹
  AUC0-∞: 5473.1 mIU · min · L^−1
  AUC0-∞/dose: 5473.1 mIU · min · L^−1 · D^−1
  Cmax: 106.5 mIU/L
  Elimination t1/2: 36.7 min
  tmax: 15 min
[2]; Diabetic Rabbit #1, IN 1 IU/kg (ME20), relative to IV
  FA absolute bioavailability: 41.2%
[2]; [6]
  ?z (lambdaz): .0113 min⁻¹
  AUC0-∞: 6638.6 mIU · min · L^−1
  AUC0-∞/dose: 13277.2 mIU · min · L^−1 · D^−1
  Cmax: 253.7 mIU/L
  Elimination t1/2: 61.1 min
  FA absolute bioavailability: 100%
  tmax: 2 min
[2]; [7]
  ?z (lambdaz): 0.0263 min⁻¹
  AUC0-∞: 12192.7 mIU · min · L^−1
  AUC0-∞/dose: 24385.5 mIU · min · L^−1 · D^−1
  Cmax: 148.4 mIU/L
  Elimination t1/2: 26.3 min
  tmax: 15 min
[2]; [8]
  ?z (lambdaz): 0.0026 min⁻¹
  AUC0-∞: 8675.1 mIU · min · L^−1
  AUC0-∞/dose: 8675.1 mIU · min · L^−1 · D^−1
  Cmax: 167.3 mIU/L
  Elimination t1/2: 271.1 min
  tmax: 15 min
[2]; Diabetic Rabbit #2, IN 1 IU/kg (ME20), relative to IV
  FA absolute bioavailability: 70.6%
[2]; [9]
  ?z (lambdaz): 0.03 min⁻¹
  AUC0-∞: 6145.1 mIU · min · L^−1
  AUC0-∞/dose: 12290.2 mIU · min · L^−1 · D^−1
  Cmax: 183.1 mIU/L
  Elimination t1/2: 23.1 min
  FA absolute bioavailability: 100%
  tmax: 5 min
[2]; [10]
  ?z (lambdaz): 0.0047 min⁻¹
  AUC0-∞: 16772.0 mIU · min · L^−1
  AUC0-∞/dose: 33544.1 mIU · min · L^−1 · D^−1
  Cmax: 71.6 mIU/L
  Elimination t1/2: 149.0 min
  tmax: 30 min
[2]; [11]
  ?z (lambdaz): 0.0235 min⁻¹
  AUC0-∞: 3644.5 mIU · min · L^−1
  AUC0-∞/dose: 3644.5 mIU · min · L^−1 · D^−1
  Cmax: 79.5 mIU/L
  Elimination t1/2: 29.4 min
  tmax: 15 min
[2]; Diabetic Rabbit #3, IN 1 IU/kg (ME20), relative to IV
  FA absolute bioavailability: 27.5%
[2]; [12]
  ?z (lambdaz): 0.0097 min⁻¹
  AUC0-∞: 6628.2 mIU · min · L^−1
  AUC0-∞/dose: 13256.4 mIU · min · L^−1 · D^−1
  Cmax: 268.3 mIU/L
  Elimination t1/2: 71.7 min
  FA absolute bioavailability: 100%
  tmax: 15 min
[2]; [13]
  ?z (lambdaz): 0.0164 min⁻¹
  AUC0-∞: 12798.8 mIU · min · L^−1
  AUC0-∞/dose: 25597.7 mIU · min · L^−1 · D^−1
  Cmax: 121.5 mIU/L
  Elimination t1/2: 42.3 min
  tmax: 15 min
[2]; [14]
  ?z (lambdaz): 0.0218 min⁻¹
  AUC0-∞: 3845.4 mIU · min · L^−1
  AUC0-∞/dose: 3845.4 mIU · min · L^−1 · D^−1
  Cmax: 89.8 mIU/L
  Elimination t1/2: 31.9 min
  tmax: 15 min
[2]; Diabetic Rabbit #4, IN 1 IU/kg (ME20), relative to IV
  FA absolute bioavailability: 33.0%
[2]; [15]
  ?z (lambdaz): 0.0148 min⁻¹
  AUC0-∞: 5816.2 mIU · min · L^−1
  AUC0-∞/dose: 11632.4 mIU · min · L^−1 · D^−1
  Cmax: 267.2 mIU/L
  Elimination t1/2: 46.8 min
  FA absolute bioavailability: 100%
  tmax: 5 min
[2]; [16]
  ?z (lambdaz): 0.0119 min⁻¹
  AUC0-∞: 9130.1 mIU · min · L^−1
  AUC0-∞/dose: 18260.2 mIU · min · L^−1 · D^−1
  Cmax: 72.5 mIU/L
  Elimination t1/2: 58.4 min
  tmax: 45 min
[2]; diabetic rabbit #1, nasal application
  peak insulin plasma level: 106.5 ?IU/ml
[2]; diabetic rabbit #2, nasal application
  peak insulin plasma level: 167.3 ?IU/ml
[2]; diabetic rabbit #3, nasal application
  peak insulin plasma level: 79.5 ?IU/ml
[2]; diabetic rabbit #4, nasal application
  peak insulin plasma level: 89.8 ?IU/ml
[2]; diabetic rabbits #1 to #4, nasal application
  time to peak insulin plasma level from nasal application: 15 min

Like-named read-outs stand apart in the source and are kept apart here. Marks after values point to notes of the source that are not given here.
